Experiment [1] concerns the target T1, human integrin αMβ2 headpiece fragment (Homo sapiens); ITGAM isoform 2 (as in …). As to the kind of experiment: BLI; competition: biotinylated avi-tagged hCD11bNb1 on streptavidin sensors; 20 nM αMβ2 HP alone or preincubated with 10-fold molar excess of hCD11bNb1 WT or mutants; 30 °C; running buffer with 1 mg/ml BSA. As to conditions: both partners purified.
Experiment [2] has as its target T1, human integrin αMβ2 headpiece fragment. As to the kind of experiment: BLI; His-tagged hCD11bNb1 on anti-penta-HIS sensors; αMβ2 HP 6.25-50 nM or αI domain 0.8-25 nM in solution; 30 °C; 20 mM Hepes pH 7.5, 150 mM NaCl, 5 mM MgCl2, 1 mM CaCl2; 1:1 model; triplicates; apparent. The settings on record: both partners purified. (In general: Biolayer interferometry detects binding as a change in optical thickness at a sensor tip.)

B1: nanobody hCD11bNb1 (His-tagged) (VHH)
VHH: QVQLVETGGGLVQAGGSLRLSCAASGNINSFNAMGWFRQAPGKQRELVAAITFGGRTNYADSVKGRFTISRDNTKGSVYLQMNSLKPEDTAVYYCAASENNLLTGVWHYWGRGTQVTVSS
notes: nanobody selected by phage display from a llama immunised with the αMβ2 HP; they are in PDB 7NP9 (nanobody alone) and PDB 7P2D (complex); Captured through its His tag on anti-penta-HIS BLI sensors. pET-22b(+) usually adds a C-terminal His6 (surmise); also called parental hCD11bNb1; WT hCD11bNb1
As to B1, the “percent of the signal of αMβ2 HP on immobilised hCD11bNb1 left with a 10-fold molar excess” value in experiment [1] was roughly 22%. In addition, the Kd in experiment [2] fell in the range of 1 to 6 nM.

Values taken from paper PMC9287160, “Structural insights into the function-modulating effects of nanobody binding to the integrin receptor αMβ2” (The Journal of Biological Chemistry, 2022).
